Biological target: T1, recombinant alpha-glucosidase from S. cerevisiae (maltase) (Saccharomyces cerevisiae, UniProt P53341)
T1 construct: purchased Sigma G0660-750UN
Experiment: biochemical
Conditions: Table 2

The chains behind the UniProt entries cited, without tags or fusion partners. Where a name states a change or a piece, a line headed by the entry shows the natural chain unless it says otherwise.
UniProt P53341: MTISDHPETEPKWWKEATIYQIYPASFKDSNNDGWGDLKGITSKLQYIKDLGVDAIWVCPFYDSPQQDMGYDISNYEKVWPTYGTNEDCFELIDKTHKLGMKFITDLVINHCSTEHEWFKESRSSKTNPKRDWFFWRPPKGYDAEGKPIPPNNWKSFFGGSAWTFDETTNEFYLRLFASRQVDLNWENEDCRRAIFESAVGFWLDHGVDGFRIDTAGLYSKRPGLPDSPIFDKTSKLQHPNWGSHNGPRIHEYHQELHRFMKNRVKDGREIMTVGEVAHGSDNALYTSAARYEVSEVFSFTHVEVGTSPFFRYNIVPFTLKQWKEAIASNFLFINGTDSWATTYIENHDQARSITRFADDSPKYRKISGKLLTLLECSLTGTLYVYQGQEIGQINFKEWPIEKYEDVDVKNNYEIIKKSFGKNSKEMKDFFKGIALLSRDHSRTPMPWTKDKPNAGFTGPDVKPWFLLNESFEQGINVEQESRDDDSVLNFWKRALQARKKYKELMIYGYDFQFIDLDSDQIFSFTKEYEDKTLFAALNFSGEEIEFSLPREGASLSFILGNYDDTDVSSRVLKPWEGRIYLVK

## OCC(CO)N[C@H]1C[C@](O)(CO)[C@@H](O)[C@H](O)[C@H]1O [Voglibose, voglibose, reference compound]
Inhibitory activity on α-glucosidase (IC50) in mg/ml
  IC50: 1 mM
Inhibitory activity on α-glucosidase (IC50) in mmol/l, enzyme 1.6 U/ml, p-NPG 20 mM, pH 6.8, 37° C.
  IC50: 24.4 ± 0.47 mM

Reference: US10500245B2, “Compositions for preventing and/or treating pathological conditions associated with alpha-glucosidase” (UNIVERSITE DE LA ROCHELLE, priority 2014, dated 2019)
